Data published in paper PMC5797642, “Inverse Modulation of Neuronal Kv12.1 and Kv11.1 Channels by 4-Aminopyridine and NS1643” (Frontiers in Molecular Neuroscience, 2018).

Experiments:
Kv12.1 (Elk1) = biological target: T1, Kv12.1 (Elk1) (Homo sapiens, UniProt Q96L42); assay: cell-based; set-up: gene KCNH8
T1 sequence (Q96L42 1-1107): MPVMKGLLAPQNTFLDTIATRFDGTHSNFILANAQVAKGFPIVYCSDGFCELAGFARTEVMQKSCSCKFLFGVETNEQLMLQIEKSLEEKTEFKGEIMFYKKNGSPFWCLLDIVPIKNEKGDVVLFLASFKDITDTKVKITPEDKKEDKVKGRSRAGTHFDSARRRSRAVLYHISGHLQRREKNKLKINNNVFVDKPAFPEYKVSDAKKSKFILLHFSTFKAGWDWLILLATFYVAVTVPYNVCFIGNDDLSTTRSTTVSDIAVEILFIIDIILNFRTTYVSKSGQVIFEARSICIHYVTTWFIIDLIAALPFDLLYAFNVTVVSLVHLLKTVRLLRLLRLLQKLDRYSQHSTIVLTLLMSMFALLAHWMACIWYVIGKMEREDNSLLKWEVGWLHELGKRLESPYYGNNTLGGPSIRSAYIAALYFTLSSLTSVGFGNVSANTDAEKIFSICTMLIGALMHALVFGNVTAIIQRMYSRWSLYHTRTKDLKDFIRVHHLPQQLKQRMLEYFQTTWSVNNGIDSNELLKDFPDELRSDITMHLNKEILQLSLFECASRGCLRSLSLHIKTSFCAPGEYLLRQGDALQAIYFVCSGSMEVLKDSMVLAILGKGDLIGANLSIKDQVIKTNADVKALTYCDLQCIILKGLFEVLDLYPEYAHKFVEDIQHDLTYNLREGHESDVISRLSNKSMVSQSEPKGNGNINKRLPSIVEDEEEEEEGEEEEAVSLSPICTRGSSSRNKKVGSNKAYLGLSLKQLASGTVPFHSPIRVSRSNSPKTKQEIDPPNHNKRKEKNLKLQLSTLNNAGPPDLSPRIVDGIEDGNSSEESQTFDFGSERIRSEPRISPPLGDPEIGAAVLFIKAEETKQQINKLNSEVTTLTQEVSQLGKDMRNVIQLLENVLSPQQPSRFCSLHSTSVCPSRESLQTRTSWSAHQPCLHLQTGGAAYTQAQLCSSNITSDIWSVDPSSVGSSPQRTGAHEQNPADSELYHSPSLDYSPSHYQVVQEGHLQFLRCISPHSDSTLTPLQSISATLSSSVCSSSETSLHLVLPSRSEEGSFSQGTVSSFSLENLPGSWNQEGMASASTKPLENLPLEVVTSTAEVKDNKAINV

Kv11.1 (Erg1) = biological target: T2, Kv11.1 (Erg1) (Rattus norvegicus, UniProt O08962); assay: cell-based
T2 construct: gene Kcnh2
T2 sequence (O08962 1-1163): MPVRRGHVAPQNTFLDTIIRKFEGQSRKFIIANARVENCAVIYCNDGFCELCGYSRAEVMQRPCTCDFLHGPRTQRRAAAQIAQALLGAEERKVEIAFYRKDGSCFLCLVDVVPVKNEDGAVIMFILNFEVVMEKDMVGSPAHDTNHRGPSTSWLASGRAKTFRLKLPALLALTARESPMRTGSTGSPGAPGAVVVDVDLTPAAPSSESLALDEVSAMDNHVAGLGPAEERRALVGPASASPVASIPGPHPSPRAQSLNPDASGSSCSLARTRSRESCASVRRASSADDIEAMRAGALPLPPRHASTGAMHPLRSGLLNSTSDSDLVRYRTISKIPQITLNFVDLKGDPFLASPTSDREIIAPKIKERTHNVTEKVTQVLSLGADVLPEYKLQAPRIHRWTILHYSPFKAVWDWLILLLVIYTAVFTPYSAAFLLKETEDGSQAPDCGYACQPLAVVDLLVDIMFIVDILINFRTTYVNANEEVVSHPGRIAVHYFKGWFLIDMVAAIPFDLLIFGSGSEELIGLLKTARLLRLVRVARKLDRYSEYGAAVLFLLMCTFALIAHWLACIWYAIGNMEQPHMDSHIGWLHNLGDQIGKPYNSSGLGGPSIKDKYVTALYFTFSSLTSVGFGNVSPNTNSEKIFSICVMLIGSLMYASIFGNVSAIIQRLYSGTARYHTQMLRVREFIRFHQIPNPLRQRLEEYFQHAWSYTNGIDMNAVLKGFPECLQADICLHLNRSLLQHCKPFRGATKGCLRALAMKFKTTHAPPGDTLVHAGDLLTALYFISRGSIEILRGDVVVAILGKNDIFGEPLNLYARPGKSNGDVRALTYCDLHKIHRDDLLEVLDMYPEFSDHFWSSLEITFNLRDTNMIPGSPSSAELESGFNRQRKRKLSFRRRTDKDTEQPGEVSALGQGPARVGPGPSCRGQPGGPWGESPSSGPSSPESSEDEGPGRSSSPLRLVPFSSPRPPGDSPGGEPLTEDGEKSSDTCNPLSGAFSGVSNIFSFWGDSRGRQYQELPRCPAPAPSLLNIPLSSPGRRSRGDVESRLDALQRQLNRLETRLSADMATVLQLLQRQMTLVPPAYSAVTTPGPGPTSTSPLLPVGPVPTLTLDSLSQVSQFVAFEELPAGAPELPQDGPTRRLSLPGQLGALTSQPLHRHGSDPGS

With `Nc1ccncc1` [4-AP, 4-aminopyridine] as the molecule, how does the EC50 (Kv12.1 (Elk1)) read?
Its EC50 is roughly 2100 µM.

What about the IC50 (Kv11.1 (Erg1)) of the same molecule?
Its IC50 is roughly 2600 µM.
